# Test results as given in patent US20260384443A1, “THIADIAZOLES AS GLUTAMINASE I INHIBITORS” (published 2026).
# The chains behind the UniProt entries cited, without tags or fusion partners. Residues count along the entry.
# UniProt O94925, 55-669 limits assumed: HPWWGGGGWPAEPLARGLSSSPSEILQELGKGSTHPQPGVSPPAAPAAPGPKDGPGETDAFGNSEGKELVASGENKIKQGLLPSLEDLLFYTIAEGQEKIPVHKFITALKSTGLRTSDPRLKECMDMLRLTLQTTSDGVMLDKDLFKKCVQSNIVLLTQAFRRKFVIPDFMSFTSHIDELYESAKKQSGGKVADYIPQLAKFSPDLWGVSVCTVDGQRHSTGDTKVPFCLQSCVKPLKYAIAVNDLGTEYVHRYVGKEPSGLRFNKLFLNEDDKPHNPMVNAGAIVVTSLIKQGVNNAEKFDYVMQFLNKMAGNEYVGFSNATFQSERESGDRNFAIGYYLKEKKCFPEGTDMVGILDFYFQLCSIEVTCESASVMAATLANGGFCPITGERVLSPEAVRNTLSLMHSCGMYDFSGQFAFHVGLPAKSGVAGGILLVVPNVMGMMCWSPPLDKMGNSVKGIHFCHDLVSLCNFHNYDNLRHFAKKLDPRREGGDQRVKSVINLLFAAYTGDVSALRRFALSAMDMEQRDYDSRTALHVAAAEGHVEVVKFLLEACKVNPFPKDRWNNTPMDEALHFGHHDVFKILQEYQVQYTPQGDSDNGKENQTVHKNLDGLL
# UniProt O94925, 73-669 limits assumed: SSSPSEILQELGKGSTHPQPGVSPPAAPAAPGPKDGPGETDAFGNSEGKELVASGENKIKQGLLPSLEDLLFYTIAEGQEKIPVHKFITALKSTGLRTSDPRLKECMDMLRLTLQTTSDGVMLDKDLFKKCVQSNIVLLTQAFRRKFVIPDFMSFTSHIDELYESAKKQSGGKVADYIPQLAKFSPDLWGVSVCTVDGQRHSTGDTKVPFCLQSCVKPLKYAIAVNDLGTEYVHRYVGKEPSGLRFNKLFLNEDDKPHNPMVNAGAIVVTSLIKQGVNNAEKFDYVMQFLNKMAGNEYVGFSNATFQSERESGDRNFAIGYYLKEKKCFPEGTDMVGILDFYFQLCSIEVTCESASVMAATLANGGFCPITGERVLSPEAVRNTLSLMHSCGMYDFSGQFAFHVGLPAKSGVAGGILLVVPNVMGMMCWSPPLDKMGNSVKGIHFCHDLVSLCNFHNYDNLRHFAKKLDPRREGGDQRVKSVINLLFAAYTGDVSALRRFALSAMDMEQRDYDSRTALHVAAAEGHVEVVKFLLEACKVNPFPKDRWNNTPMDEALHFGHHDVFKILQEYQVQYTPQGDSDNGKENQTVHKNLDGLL
# pIC50: −log10 of the molar value.
# Columns and labels:
# [1] = molecular target: T1, GLS1 (Homo sapiens, UniProt O94925); test: GLS1 cell assay: intracellular glutamate level in A549 cells (Glutamine/Glutamate-Glo); conditions: read-out: Cell IC50, 2 h compound pre-incubation, then 24 h with L-Gln
# [2] = In-vivo pharmacokinetics in lung, dosed intranasally in mouse (protocol for RE1 and RE2, C57bl/6); conditions: intranasal, 2 mg/kg single dose, male C57bl/6 mouse, vehicle 5% DMSO in 12% (2-hydroxypropyl)-β-cyclodextrin 0.9% NaCl; for AUClast in lung: up to 24 h
# [3] = molecular target: T1, GLS1; test: GLS1 enzymatic assay (three-stage coupled endpoint assay: GLS1/GDH/diaphorase, resorufin fluorescence); conditions: read-out: Enzyme IC50
# [4] = In-vivo pharmacokinetics in lung, dosed intranasally in mouse (protocol for compounds of formula (I), Balbc); conditions: intranasal; for lung concentration compared with prior art compounds / Reference Examples 1 and 2 / duration in the lung compared with Reference Examples 1 and 2: mouse, in words; for AUClast in lung / Cmax in lung: 2 mg/kg single dose, male Balbc mouse, vehicle pH 5.2 citrate buffer; for AUClast in lung: up to 24 h
# [5] = Kinetic solubility; conditions: for Kinetic Solubility: PBS buffer pH 7.4, 90 minutes at RT, from 10 mM DMSO stock, UV-VIS; for kinetic solubility compared with Reference Example 3: PBS buffer pH 7.4, in words
Structure (SMILES),pIC50 [1],pIC50 [3],also measured
COC(C(=O)Nc1nnc(N[C@@H]2CCN(c3cccnn3)C2)s1)c1cccc(OC(F)(F)F)c1 (mixture of isomers),8.97,7.01,AUClast in lung [2]: 521 ng·h/g; Cmax in lung [2]: 1537 ng/g
CC1(C)CC(CN2CCN(CC(=O)Nc3nnc(N[C@@H]4CCN(c5cccnn5)C4)s3)CC2)CC(C)(C)C1,8.77,7.28,lung concentration compared with prior art compounds / Reference Examples 1 and 2 [4]: higher lung concentration compared with prior art compounds
O=C(Cc1ccccc1)Nc1nnc(N[C@@H]2CCN(c3cccnn3)C2)s1,–,–,Kinetic Solubility [5]: 101.72 µM
O=C(C[C@@H]1CCCN(Cc2cc(F)cc(F)c2)C1)Nc1nnc(N[C@@H]2CCN(c3cccnn3)C2)s1,8.36,7.62,Kinetic Solubility [5]: 252.47 µM; kinetic solubility compared with Reference Example 3 [5]: improved kinetic solubility compared with Reference Example 3; AUClast in lung [4]: 49897 ng·h/g; Cmax in lung [4]: 27200 ng/g; duration in the lung compared with Reference Examples 1 and 2 [4]: longer duration; lung concentration compared with prior art compounds / Reference Examples 1 and 2 [4]: higher lung concentrations
CN(C)[C@H](C(=O)Nc1nnc(N[C@@H]2CCN(c3cccnn3)C2)s1)c1cccc(OC(F)(F)F)c1 (racemic),9.13,7.28,AUClast in lung [2]: 2624 ng·h/g; Cmax in lung [2]: 10850 ng/g
CC(C)Oc1ccccc1CN1CCC[C@@H](CC(=O)Nc2nnc(N[C@@H]3CCN(c4cccnn4)C3)s2)C1,7.48,7.40,Kinetic Solubility [5]: 530.07 µM; kinetic solubility compared with Reference Example 3 [5]: improved kinetic solubility compared with Reference Example 3
CC(C)Oc1ccccc1CN1CCC2(CC1)COC(C(=O)Nc1nnc(N[C@@H]3CCN(c4cccnn4)C3)s1)C2 (some centres unmarked),7.93,7.32,Kinetic Solubility [5]: 508.85 µM; kinetic solubility compared with Reference Example 3 [5]: improved kinetic solubility compared with Reference Example 3
"CC1(C)CCC(N2CCOC(CC(=O)Nc3nnc(N[C@@H]4CCN(c5cccnn5)C4)s3)C2)CC1 (single isomer, unassigned) [Example 110]",8.33,7.59,Kinetic Solubility [5]: 463.19 µM; kinetic solubility compared with Reference Example 3 [5]: improved kinetic solubility compared with Reference Example 3; AUClast in lung [4]: 127878 ng·h/g; Cmax in lung [4]: 119833 ng/g; duration in the lung compared with Reference Examples 1 and 2 [4]: longer duration; lung concentration compared with prior art compounds / Reference Examples 1 and 2 [4]: higher lung concentrations
CC(C)Sc1ccccc1CN1CCC2(CC1)CCN(CC(=O)Nc1nnc(N[C@@H]3CCN(c4cccnn4)C3)s1)C2,8.92,7.81,–
Cc1c(F)cc(F)cc1CN1CCC[C@@H](CC(=O)Nc2nnc(N[C@@H]3CCN(c4cccnn4)C3)s2)C1,8.74,7.04,–
"Cc1ccccc1CN1CCC([C@H](C(=O)Nc2nnc(N[C@@H]3CCN(c4cccnn4)C3)s2)C2CCC2)CC1 (single isomer, unassigned) [Example 218]",6.82,6.60,–
"O=C(C[C@@H]1CN(C2CCC3(CCCC3)CC2)CCO1)Nc1nnc(N[C@@H]2CCN(c3cccnn3)C2)s1 (single isomer, unassigned) [Example 272]",8.64,7.79,–
CCOc1c(F)cc(CN2CCC[C@@H](CC(=O)Nc3nnc(N[C@@H]4CCN(c5cccnn5)C4)s3)C2)cc1F,8.33,7.72,–
"CN1CCN(CC2CCC(C)(C)CC2)C[C@H]1CC(=O)Nc1nnc(N[C@@H]2CCN(c3cccnn3)C2)s1 (single isomer, unassigned) [Example 280]",8.03,7.59,–
CN(Cc1cccc(OC(F)(F)F)c1)C1(CC(=O)Nc2nnc(N[C@@H]3CCN(c4cccnn4)C3)s2)CCC1,8.19,6.90,–
Cc1cc(CN2CCC(CC(=O)Nc3nnc(N[C@@H]4CCN(c5cccnn5)C4)s3)CC2)cc(OC(F)(F)F)c1,8.82,7.15,–
Cc1cc(F)cc(CN2CC3(CCN(CC(=O)Nc4nnc(N[C@@H]5CCN(c6cccnn6)C5)s4)C3)C2)c1,7.82,7.62,–
CC(C)Sc1ccccc1CN1CC2(COC(CC(=O)Nc3nnc(N[C@@H]4CCN(c5cccnn5)C4)s3)C2)C1 (some centres unmarked),8.40,7.70,–
O=C(C[C@H]1CCN(Cc2cccc(OC(F)(F)F)c2)C1)Nc1nnc(N[C@@H]2CCN(c3cccnn3)C2)s1,8.27,7.51,–
CC1(C)CCC(CN2CCN(CC(=O)Nc3nnc(N[C@@H]4CCN(c5cccnn5)C4)s3)CC2)CC1,8.26,6.96,–
"CN1CCN(C2CCC(C)(C)CC2)C[C@H]1CC(=O)Nc1nnc(N[C@@H]2CCN(c3cccnn3)C2)s1 (single isomer, unassigned) [Example 288]",6.69,6.84,–
"CCC1(CC)CCC(N2CCO[C@H](CC(=O)Nc3nnc(N[C@@H]4CCN(c5cccnn5)C4)s3)C2)CC1 (single isomer, unassigned) [Example 147]",8.21,7.72,–
Cc1cc(C)cc(CN2CCC(SCC(=O)Nc3nnc(N[C@@H]4CCN(c5cccnn5)C4)s3)CC2)c1,8.55,7.65,–

Structure (SMILES),pIC50 [1],pIC50 [3],also measured
"CCN1CCN(Cc2cccc(OC(F)(F)F)c2)[C@H](CC(=O)Nc2nnc(N[C@@H]3CCN(c4cccnn4)C3)s2)C1 (single isomer, unassigned) [Example 206]",8.00,7.37,–
O=C(CSC1CCN(Cc2cccc(OC(F)(F)F)c2)CC1)Nc1nnc(N[C@@H]2CCN(c3cccnn3)C2)s1,9.10,7.07,–
"CC(C)N1CCN(Cc2cccc(OC(F)F)c2)[C@H](CC(=O)Nc2nnc(N[C@@H]3CCN(c4cccnn4)C3)s2)C1 (single isomer, unassigned) [Example 249]",7.49,7.27,–
"CSc1ccccc1CN1CCC[C@@H](OCC(=O)Nc2nnc(N[C@@H]3CCN(c4cccnn4)C3)s2)C1 (single isomer, unassigned) [Example 104]",8.28,7.26,–
CCOc1cc(CN2CCC[C@@H](CC(=O)Nc3nnc(N[C@@H]4CCN(c5cccnn5)C4)s3)C2)cc(F)c1F,8.26,7.85,–
"CC[C@@H](C(=O)Nc1nnc(N[C@@H]2CCN(c3cccnn3)C2)s1)C1CCN(Cc2ccccc2OC(C)C)CC1 (single isomer, unassigned) [Example 208]",7.08,7.23,–
O=C(CC1CN(C2CC3(CCCCC3)C2)CCO1)Nc1nnc(N[C@@H]2CCN(c3cccnn3)C2)s1 (some centres unmarked),8.77,7.70,–
Cc1ccc(CN2CCC3(CC(CC(=O)Nc4nnc(N[C@@H]5CCN(c6cccnn6)C5)s4)C3)C2)c(OC(C)C)c1 (some centres unmarked),7.64,7.70,–
COC(C(=O)Nc1nnc(N[C@@H]2CCN(c3cccnn3)C2)s1)C1CCN(Cc2ccccc2SC(C)C)CC1 (some centres unmarked),8.12,6.56,–
O=C(CC1CN(C2CCCC2)CCO1)Nc1nnc(N[C@@H]2CCN(c3cccnn3)C2)s1 (some centres unmarked),6.95,7.28,–
CC(C)C1CCC(N2CCOC(CC(=O)Nc3nnc(N[C@@H]4CCN(c5cccnn5)C4)s3)C2)CC1 (some centres unmarked),8.62,7.68,–
CC1(C)CC(CN2CCC(CC(=O)Nc3nnc(N[C@@H]4CCN(c5cccnn5)C4)s3)CC2)CC(C)(C)C1,7.92,7.27,–
O=C(CC1CCC2(CC1)CCN(Cc1ccccc1)CC2)Nc1nnc(N[C@@H]2CCN(c3cccnn3)C2)s1,7.76,7.43,–
CCc1ccc(CN2CCC[C@@H](CC(=O)Nc3nnc(N[C@@H]4CCN(c5cccnn5)C4)s3)C2)c(F)c1,8.24,7.63,–
O=C(CC1CN(C2CCCCC2)CCC1(F)F)Nc1nnc(N[C@@H]2CCN(c3cccnn3)C2)s1 (some centres unmarked),8.23,7.81,–
"CCO[C@@H](C(=O)Nc1nnc(N[C@@H]2CCN(c3cccnn3)C2)s1)C1CCN(Cc2ccc(OC(F)F)cc2)CC1 (single isomer, unassigned) [Example 231]",8.07,7.13,–
O=C(C[C@H]1CCCN(Cc2cc(F)cc(F)c2)C1)Nc1nnc(N[C@@H]2CCN(c3cccnn3)C2)s1,7.95,7.85,–
"O=C(Nc1nnc(N[C@@H]2CCN(c3cccnn3)C2)s1)[C@H]1CC2(CCN(Cc3ccccc3OC3CCC3)CC2)CO1 (single isomer, unassigned) [Example 214]",8.03,7.28,–
O=C(CC1CCN(Cc2ccc(F)cc2OC(F)(F)F)CC1)Nc1nnc(N[C@@H]2CCN(c3cccnn3)C2)s1,8.38,7.21,–
O=C(C[C@H]1CCCN(Cc2cccc(OC(F)(F)F)c2)C1)Nc1nnc(N[C@@H]2CCN(c3cccnn3)C2)s1,8.33,7.42,–
"CC1(C)CCC(N2CCOC(CC(=O)Nc3nnc(N[C@@H]4CCN(c5cccnn5)C4)s3)C2)CC1 (single isomer, unassigned) [Example 109]",7.72,7.45,–
Cc1cc(CN2CCC(CC(=O)Nc3nnc(N[C@@H]4CCN(c5cccnn5)C4)s3)CC2)cc(OC(F)F)c1,7.93,7.52,–
